Data published in patent US20210330661A1 (China Medical University, priority 2020, published 2021).

Columns and labels:
SARS-CoV-2 M^pro [1] = biological target: T1, SARS-CoV-2 M^pro (Severe acute respiratory syndrome coronavirus 2, UniProt P0DTD1); experiment: biochemical; format: binding
SARS-CoV-2 M^pro [2] = biological target: T1, SARS-CoV-2 M^pro; experiment: FRET assay of SARS-CoV-2 Mpro activity with boceprevir or narlaprevir; format: biochemical

## CCCC[C@H](NC(=O)[C@@H]1[C@@H]2[C@H](CN1C(=O)[C@@H](NC(=O)NC1(CS(=O)(=O)C(C)(C)C)CCCCC1)C(C)(C)C)C2(C)C)C(=O)C(=O)NC1CC1 [narlaprevir]
SARS-CoV-2 M^pro [1]
  Kd: 19 µM
SARS-CoV-2 M^pro [2]
  IC50: 40.8 ± 4.6 µM
